{"sequences": {"note": "Amino acid sequences for entries named in this document (tags omitted).", "UniProt Q99250, whole entry": "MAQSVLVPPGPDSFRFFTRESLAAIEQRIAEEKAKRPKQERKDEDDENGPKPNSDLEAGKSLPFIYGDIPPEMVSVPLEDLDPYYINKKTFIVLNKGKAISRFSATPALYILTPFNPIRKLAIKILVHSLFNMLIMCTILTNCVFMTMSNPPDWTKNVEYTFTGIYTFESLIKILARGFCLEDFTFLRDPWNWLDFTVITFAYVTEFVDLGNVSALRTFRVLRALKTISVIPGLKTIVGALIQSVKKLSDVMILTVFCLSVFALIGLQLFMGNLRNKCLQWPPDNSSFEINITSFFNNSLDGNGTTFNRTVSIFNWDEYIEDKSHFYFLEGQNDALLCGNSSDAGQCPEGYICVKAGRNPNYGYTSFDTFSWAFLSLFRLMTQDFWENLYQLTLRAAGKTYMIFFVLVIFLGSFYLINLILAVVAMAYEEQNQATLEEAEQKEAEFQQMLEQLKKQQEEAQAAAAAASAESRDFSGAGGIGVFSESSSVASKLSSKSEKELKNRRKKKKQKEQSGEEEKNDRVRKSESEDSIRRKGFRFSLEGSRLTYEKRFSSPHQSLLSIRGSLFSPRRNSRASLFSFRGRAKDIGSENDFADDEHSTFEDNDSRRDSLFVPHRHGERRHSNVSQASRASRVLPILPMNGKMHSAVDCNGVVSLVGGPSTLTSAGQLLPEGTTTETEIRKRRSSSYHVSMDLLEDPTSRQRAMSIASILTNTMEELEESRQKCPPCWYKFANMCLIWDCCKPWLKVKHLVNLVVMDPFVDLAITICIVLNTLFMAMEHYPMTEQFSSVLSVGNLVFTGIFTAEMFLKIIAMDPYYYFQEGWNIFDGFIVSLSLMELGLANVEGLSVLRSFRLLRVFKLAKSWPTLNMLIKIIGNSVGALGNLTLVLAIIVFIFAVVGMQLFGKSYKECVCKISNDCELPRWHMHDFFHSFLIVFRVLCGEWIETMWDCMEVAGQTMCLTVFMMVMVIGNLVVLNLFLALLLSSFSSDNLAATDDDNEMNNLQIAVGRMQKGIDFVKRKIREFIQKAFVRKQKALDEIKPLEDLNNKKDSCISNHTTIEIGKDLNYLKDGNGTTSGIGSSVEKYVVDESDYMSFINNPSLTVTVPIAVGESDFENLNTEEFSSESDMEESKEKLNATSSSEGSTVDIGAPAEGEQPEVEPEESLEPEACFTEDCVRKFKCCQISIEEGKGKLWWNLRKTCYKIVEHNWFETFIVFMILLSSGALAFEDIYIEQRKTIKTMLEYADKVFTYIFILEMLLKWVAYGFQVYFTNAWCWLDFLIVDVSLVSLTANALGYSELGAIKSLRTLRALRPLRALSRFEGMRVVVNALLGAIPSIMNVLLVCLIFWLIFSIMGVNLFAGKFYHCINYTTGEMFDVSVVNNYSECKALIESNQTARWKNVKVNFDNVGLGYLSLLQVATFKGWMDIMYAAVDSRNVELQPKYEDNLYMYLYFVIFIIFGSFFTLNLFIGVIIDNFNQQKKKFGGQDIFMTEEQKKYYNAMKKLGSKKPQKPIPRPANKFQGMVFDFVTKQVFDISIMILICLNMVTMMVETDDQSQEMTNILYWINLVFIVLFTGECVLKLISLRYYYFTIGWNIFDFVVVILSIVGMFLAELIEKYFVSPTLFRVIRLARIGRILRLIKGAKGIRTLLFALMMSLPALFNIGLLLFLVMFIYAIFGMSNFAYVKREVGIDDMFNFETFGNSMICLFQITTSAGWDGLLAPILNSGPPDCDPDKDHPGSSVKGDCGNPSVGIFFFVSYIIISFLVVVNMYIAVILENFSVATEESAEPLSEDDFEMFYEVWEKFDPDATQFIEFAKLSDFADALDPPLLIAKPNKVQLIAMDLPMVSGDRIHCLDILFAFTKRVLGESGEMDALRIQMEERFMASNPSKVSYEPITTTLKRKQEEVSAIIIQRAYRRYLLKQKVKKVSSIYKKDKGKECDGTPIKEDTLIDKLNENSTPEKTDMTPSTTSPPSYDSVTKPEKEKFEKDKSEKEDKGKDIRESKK"}, "source": "patent US11186564B2", "about": "“Dual NAV1.2/5HT2a inhibitors for treating CNS disorders” (Sunovion Pharmaceuticals Inc., priority 2016, dated 2021)", "molecular_target": "human sodium channel NaV1.2 (Homo sapiens, UniProt Q99250)", "test": "NaV1.2 inhibition, automated patch-clamp (Q-Patch HTX), slow inactivated state (state C)", "assay_type": "cell-based", "conditions": "IC50 (μM) for NaV1.2 slow inactivated state", "description": "In vitro method for NaV1.2 inhibition assays: The methods utilized to assess the inhibitory activity of compounds on NaV1.2 were based on the methods described by Liu et al. [Liu Y, Beck E J, & Flores C M (2011): Validation of a patch clamp screening protocol that simultaneously measures compound activity in multiple states of the voltage-gated sodium channel Nav1.2. Assay Drug Development Technology 9, 628-634]. For these electrophysiology assays, a cell line (Chinese Hamster Ovarian K-1 cells (CHO K-1)) engineered to stably express human sodium channel NaV1.2 was purchased from Millipore Corporation (catalog no. CYL3023). The electrophysiology measurements were performed using automated patch-clamp methods on a Q-Patch HTX instrument by scientists at Evotec AG under contract with Sunovion.\nThe solutions utilized for the Qpatch experiments were similar buffered solutions to those described by Liu et al. [Liu Y, Beck E J, & Flores C M (2011)]. […]\nBased upon results from studies of the fast, slow and total inactivation characteristics of the human Nav1.2 channel, a voltage protocol involving a sequence of consecutive pulses of current was used to measure channel activity in several states [Liu Y, Beck E J, & Flores C M (2011)]. […] Comparison of activity after addition of test compounds or reference compounds with activity after addition of vehicle only provided a measure of percent remaining activity from which percent inhibition was calculated. […] A slight modification of this protocol was utilized to provide measurements as a function of compound concentration, which enabled IC50 values to be determined. IC50 values were calculated by non-linear least squares regression of the data (percent inhibition of ion channel NaV1.2 activity in the slow inactivated state) onto equation (1): % inhibition=100%/(1+(IC50/[compound]) equation (1) […]"}
{"smiles": "CCN(CC)CC(=O)Nc1c(C)cccc1C", "note": "[lidocaine, reference compound]", "values": [{"measurement": "IC50", "setting": "Test 1, reference compound, Test 1", "value": 33, "unit": "µM"}, {"measurement": "IC50", "setting": "Test 2, reference compound, Test 2", "value": 51, "unit": "µM"}, {"measurement": "IC50", "setting": "Test 3, reference compound, Test 3", "value": 56, "unit": "µM"}]}
